Test system: Colon 6044 (human colon carcinoma)
Assay: Antitumour activity in Co6044 after oral administration (Table 3)
Conditions: all tested doses

Compound: Nc1ccn([C@@H]2O[C@H](CO)[C@@H](O)C2(F)F)c(=O)n1 [Gemcitabine, 2′,2′-difluorodeoxycytidine, reference compound]
- toxicity after oral administration: toxic at all tested doses
